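How tested: cells in 96-well plates exposed to compound for 48 hours at five concentrations. Abbreviation: GI50, concentration required for 50% inhibition of growth. TGI denotes the concentration required for complete inhibition of growth.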
Assays:
Test in all cases: NCI tumour cell line growth inhibition, 48 h
SNB-75 CNS = test system: SNB-75 CNS
IGROV1 ovarian = test system: IGROV1 ovarian
MCF7 breast = test system: MCF7 breast
MDA-MB-435 = test system: MDA-MB-435
OVCAR-3 ovarian = test system: OVCAR-3 ovarian
A549 NSCLC = test system: A549 NSCLC
SK-OV-3 ovarian = test system: SK-OV-3 ovarian
SW-620 colon = test system: SW-620 colon
KM12 colon = test system: KM12 colon
NCI-H226 lung = test system: NCI-H226 lung
A498 renal = test system: A498 renal
DU-145 prostate = test system: DU-145 prostate
MALME-3M melanoma = test system: MALME-3M melanoma
HS 578T breast = test system: HS 578T breast
UACC-62 melanoma = test system: UACC-62 melanoma
MDA-N = test system: MDA-N
OVCAR-5 ovarian = test system: OVCAR-5 ovarian
U251 CNS = test system: U251 CNS
COLO 205 colon = test system: COLO 205 colon
MOLT-4 leukemia = test system: MOLT-4 leukemia
M14 melanoma = test system: M14 melanoma
HOP-92 NSCLC = test system: HOP-92 NSCLC
RPMI-8226 leukemia = test system: RPMI-8226 leukemia
HL-60(TB) leukemia = test system: HL-60(TB) leukemia
SNB-19 CNS = test system: SNB-19 CNS
SF-268 CNS = test system: SF-268 CNS
TK-10 renal = test system: TK-10 renal
OVCAR-8 ovarian = test system: OVCAR-8 ovarian
SF-295 CNS = test system: SF-295 CNS
BT-549 breast = test system: BT-549 breast
HT29 colon = test system: HT29 colon
EKVX NSCLC = test system: EKVX NSCLC
T-47D breast = test system: T-47D breast
LOX IMVI melanoma = test system: LOX IMVI melanoma
UACC-257 melanoma = test system: UACC-257 melanoma
SF-539 CNS = test system: SF-539 CNS
CAKI-1 renal = test system: CAKI-1 renal
SN12C renal = test system: SN12C renal
PC-3 prostate = test system: PC-3 prostate
SK-MEL-28 melanoma = test system: SK-MEL-28 melanoma
MDA-MB-231 breast = test system: MDA-MB-231 breast
NCI-H522 lung = test system: NCI-H522 lung
SK-MEL-2 melanoma = test system: SK-MEL-2 melanoma
NCI-H460 lung = test system: NCI-H460 lung
SK-MEL-5 melanoma = test system: SK-MEL-5 melanoma
K-562 leukemia = test system: K-562 leukemia
786-0 renal = test system: 786-0 renal
HCT-15 colon = test system: HCT-15 colon
NCI/ADR-RES ovarian = test system: NCI/ADR-RES ovarian
NCI-H23 lung = test system: NCI-H23 lung
ACHN renal = test system: ACHN renal
OVCAR-4 ovarian = test system: OVCAR-4 ovarian
HCC-2998 colon = test system: HCC-2998 colon
UO-31 renal = test system: UO-31 renal
HCT-116 colon = test system: HCT-116 colon
CCRF-CEM leukemia = test system: CCRF-CEM leukemia
NCI-H322M lung = test system: NCI-H322M lung

SMILES: COc1ccc2c(c1)C1(C)CCC(O2)C12CO2 (centres undefined)
- GI50 (SNB-75 CNS): > 100 µM
- TGI (SNB-75 CNS): > 100 µM
- GI50 (IGROV1 ovarian): > 100 µM
- TGI (IGROV1 ovarian): > 100 µM
- GI50 (MCF7 breast): 46.5 µM
- TGI (MCF7 breast): > 100 µM
- GI50 (MDA-MB-435): 45.3 µM
- TGI (MDA-MB-435): > 100 µM
- GI50 (OVCAR-3 ovarian): > 100 µM
- TGI (OVCAR-3 ovarian): > 100 µM
- GI50 (A549 NSCLC): > 100 µM
- TGI (A549 NSCLC): > 100 µM
- GI50 (SK-OV-3 ovarian): > 100 µM
- TGI (SK-OV-3 ovarian): > 100 µM
- GI50 (SW-620 colon): 32.8 µM
- TGI (SW-620 colon): > 100 µM
- GI50 (KM12 colon): 61.7 µM
- TGI (KM12 colon): > 100 µM
- GI50 (NCI-H226 lung): > 100 µM
- TGI (NCI-H226 lung): > 100 µM
- GI50 (A498 renal): > 100 µM
- TGI (A498 renal): > 100 µM
- GI50 (DU-145 prostate): > 100 µM
- TGI (DU-145 prostate): > 100 µM
- GI50 (MALME-3M melanoma): > 100 µM
- TGI (MALME-3M melanoma): > 100 µM
- GI50 (HS 578T breast): 13.2 µM
- TGI (HS 578T breast): > 100 µM
- GI50 (UACC-62 melanoma): 72.4 µM
- TGI (UACC-62 melanoma): > 100 µM
- GI50 (MDA-N): 40.9 µM
- TGI (MDA-N): > 100 µM
- GI50 (OVCAR-5 ovarian): > 100 µM
- TGI (OVCAR-5 ovarian): > 100 µM
- GI50 (U251 CNS): > 100 µM
- TGI (U251 CNS): > 100 µM
- GI50 (COLO 205 colon): > 100 µM
- TGI (COLO 205 colon): > 100 µM
- GI50 (MOLT-4 leukemia): 25.5 µM
- TGI (MOLT-4 leukemia): > 100 µM
- GI50 (M14 melanoma): 45.8 µM
- TGI (M14 melanoma): > 100 µM
- GI50 (HOP-92 NSCLC): > 100 µM
- TGI (HOP-92 NSCLC): > 100 µM
- GI50 (RPMI-8226 leukemia): > 100 µM
- TGI (RPMI-8226 leukemia): > 100 µM
- GI50 (HL-60(TB) leukemia): 24.4 µM
- TGI (HL-60(TB) leukemia): 67.4 µM
- GI50 (SNB-19 CNS): > 100 µM
- TGI (SNB-19 CNS): > 100 µM
- GI50 (SF-268 CNS): 27.2 µM
- TGI (SF-268 CNS): > 100 µM
- GI50 (TK-10 renal): 96.5 µM
- TGI (TK-10 renal): > 100 µM
- GI50 (OVCAR-8 ovarian): 37.4 µM
- TGI (OVCAR-8 ovarian): > 100 µM
- GI50 (SF-295 CNS): 65.2 µM
- TGI (SF-295 CNS): > 100 µM
- GI50 (BT-549 breast): 56.9 µM
- TGI (BT-549 breast): > 100 µM
- GI50 (HT29 colon): 60.1 µM
- TGI (HT29 colon): > 100 µM
- GI50 (EKVX NSCLC): > 100 µM
- TGI (EKVX NSCLC): > 100 µM
- GI50 (T-47D breast): > 100 µM
- TGI (T-47D breast): > 100 µM
- GI50 (LOX IMVI melanoma): 26.7 µM
- TGI (LOX IMVI melanoma): > 100 µM
- GI50 (UACC-257 melanoma): > 100 µM
- TGI (UACC-257 melanoma): > 100 µM
- GI50 (SF-539 CNS): > 100 µM
- TGI (SF-539 CNS): > 100 µM
- GI50 (CAKI-1 renal): > 100 µM
- TGI (CAKI-1 renal): > 100 µM
- GI50 (SN12C renal): 34.7 µM
- TGI (SN12C renal): > 100 µM
- GI50 (PC-3 prostate): > 100 µM
- TGI (PC-3 prostate): > 100 µM
- GI50 (SK-MEL-28 melanoma): 42.9 µM
- TGI (SK-MEL-28 melanoma): > 100 µM
- GI50 (MDA-MB-231 breast): > 100 µM
- TGI (MDA-MB-231 breast): > 100 µM
- GI50 (NCI-H522 lung): 63.1 µM
- TGI (NCI-H522 lung): > 100 µM
- GI50 (SK-MEL-2 melanoma): 66.8 µM
- TGI (SK-MEL-2 melanoma): > 100 µM
- GI50 (NCI-H460 lung): > 100 µM
- TGI (NCI-H460 lung): > 100 µM
- GI50 (SK-MEL-5 melanoma): > 100 µM
- TGI (SK-MEL-5 melanoma): > 100 µM
- GI50 (K-562 leukemia): 58.4 µM
- TGI (K-562 leukemia): > 100 µM
- GI50 (786-0 renal): 71.1 µM
- TGI (786-0 renal): > 100 µM
- GI50 (HCT-15 colon): 50.6 µM
- TGI (HCT-15 colon): > 100 µM
- GI50 (NCI/ADR-RES ovarian): 30.9 µM
- TGI (NCI/ADR-RES ovarian): > 100 µM
- GI50 (NCI-H23 lung): > 100 µM
- TGI (NCI-H23 lung): > 100 µM
- GI50 (ACHN renal): 60 µM
- TGI (ACHN renal): > 100 µM
- GI50 (OVCAR-4 ovarian): > 100 µM
- TGI (OVCAR-4 ovarian): > 100 µM
- GI50 (HCC-2998 colon): > 100 µM
- TGI (HCC-2998 colon): > 100 µM
- GI50 (UO-31 renal): 29.7 µM
- TGI (UO-31 renal): > 100 µM
- GI50 (HCT-116 colon): 44.9 µM
- TGI (HCT-116 colon): > 100 µM
- GI50 (CCRF-CEM leukemia): 48 µM
- TGI (CCRF-CEM leukemia): > 100 µM
- GI50 (NCI-H322M lung): > 100 µM
- TGI (NCI-H322M lung): > 100 µM

From PubChem BioAssay (NCI)
